Key:
STAT5a SH2 domain = STAT5a SH2 domain (Homo sapiens, UniProt P42229); test: Fluorescence polarization assay, STAT5a SH2 domain; details: mean ± s.d.
STAT5b SH2 domain = STAT5b SH2 domain (Homo sapiens, UniProt P51692); test: Fluorescence polarization assay, STAT5b SH2 domain; details: mean ± s.d.

The chains behind the UniProt entries cited, without tags or fusion partners.
UniProt P42229, whole entry: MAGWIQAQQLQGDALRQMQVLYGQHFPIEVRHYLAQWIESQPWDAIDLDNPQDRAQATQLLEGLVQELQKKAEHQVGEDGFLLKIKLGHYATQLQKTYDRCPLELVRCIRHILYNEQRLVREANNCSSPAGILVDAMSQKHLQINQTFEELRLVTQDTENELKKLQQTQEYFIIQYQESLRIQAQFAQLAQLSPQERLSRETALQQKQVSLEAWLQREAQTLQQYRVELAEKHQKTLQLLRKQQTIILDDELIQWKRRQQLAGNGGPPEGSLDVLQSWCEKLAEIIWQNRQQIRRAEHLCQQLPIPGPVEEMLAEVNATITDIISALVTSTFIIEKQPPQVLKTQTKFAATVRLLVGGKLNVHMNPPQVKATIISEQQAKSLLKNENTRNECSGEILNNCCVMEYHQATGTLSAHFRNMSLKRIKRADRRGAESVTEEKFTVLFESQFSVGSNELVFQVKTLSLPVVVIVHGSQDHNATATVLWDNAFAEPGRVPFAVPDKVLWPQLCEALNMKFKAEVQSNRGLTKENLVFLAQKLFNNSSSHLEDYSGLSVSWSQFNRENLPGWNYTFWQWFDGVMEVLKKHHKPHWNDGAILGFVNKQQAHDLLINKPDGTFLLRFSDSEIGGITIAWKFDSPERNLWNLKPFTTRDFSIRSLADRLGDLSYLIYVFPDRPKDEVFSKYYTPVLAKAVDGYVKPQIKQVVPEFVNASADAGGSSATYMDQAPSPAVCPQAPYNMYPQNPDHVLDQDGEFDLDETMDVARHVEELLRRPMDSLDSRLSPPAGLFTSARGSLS
UniProt P51692, whole entry: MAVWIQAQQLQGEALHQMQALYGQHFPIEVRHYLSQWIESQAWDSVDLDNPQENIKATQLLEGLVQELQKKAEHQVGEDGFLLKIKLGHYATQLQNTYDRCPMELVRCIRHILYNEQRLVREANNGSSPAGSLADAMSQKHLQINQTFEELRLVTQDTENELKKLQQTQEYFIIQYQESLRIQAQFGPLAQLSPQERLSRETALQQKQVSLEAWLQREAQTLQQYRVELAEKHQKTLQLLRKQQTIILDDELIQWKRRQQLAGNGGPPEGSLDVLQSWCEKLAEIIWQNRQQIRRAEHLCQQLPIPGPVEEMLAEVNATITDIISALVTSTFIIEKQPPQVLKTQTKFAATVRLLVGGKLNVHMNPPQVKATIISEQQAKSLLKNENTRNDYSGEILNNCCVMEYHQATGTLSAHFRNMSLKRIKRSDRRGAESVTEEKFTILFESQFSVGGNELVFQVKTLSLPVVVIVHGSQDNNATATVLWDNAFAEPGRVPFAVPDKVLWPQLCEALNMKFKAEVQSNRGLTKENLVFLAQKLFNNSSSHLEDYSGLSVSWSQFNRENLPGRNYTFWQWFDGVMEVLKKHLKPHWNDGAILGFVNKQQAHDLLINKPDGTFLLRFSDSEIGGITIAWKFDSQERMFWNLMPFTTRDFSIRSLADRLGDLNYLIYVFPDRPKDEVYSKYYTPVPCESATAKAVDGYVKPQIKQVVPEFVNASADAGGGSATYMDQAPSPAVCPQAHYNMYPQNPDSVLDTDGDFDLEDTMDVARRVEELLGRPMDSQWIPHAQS

IC50 (STAT5a SH2 domain; read-out: STAT5a IC50, fluorescence polarization, three independent experiments): 11.6 µM | Ki (STAT5a SH2 domain; read-out: STAT5a Ki, converted from IC50 using the published equation, n = 3): 5.8 µM | IC50 (STAT5b SH2 domain; read-out: STAT5b IC50, fluorescence polarization, three independent experiments): 0.57 µM | Ki (STAT5b SH2 domain; read-out: STAT5b Ki, converted from IC50 using the published equation, n = 3): 0.25 µM
Structure (SMILES): O=C(COc1ccc(Oc2ccccc2)cc1)NCc1ccc(OP(=O)(O)O)c(OP(=O)(O)O)c1

Source: publication PMC5429769, “Rational development of Stafib-2: a selective, nanomolar inhibitor of the transcription factor STAT5b” (Scientific Reports, 2017)
